## Antibody variant affinities, Ab-14 light chain, assay B

Data: MIT Lincoln Laboratory AlphaSeq set, Li et al. 2023, doi:10.1038/s41467-023-39022-2, as distributed in FLAb.

The target is the same throughout: PDVDLGDISGINAS, from the HR2 region of SARS-CoV-2 spike.

Each scFv is VH, a 15-residue (Gly4Ser)3 linker, VL, as in the parent Ab-14, and differs from it in the CDRs of the light chain only.
VH: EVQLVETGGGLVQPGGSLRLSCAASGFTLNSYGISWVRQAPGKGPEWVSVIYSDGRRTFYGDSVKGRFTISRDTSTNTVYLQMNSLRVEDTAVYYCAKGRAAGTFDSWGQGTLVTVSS
VL: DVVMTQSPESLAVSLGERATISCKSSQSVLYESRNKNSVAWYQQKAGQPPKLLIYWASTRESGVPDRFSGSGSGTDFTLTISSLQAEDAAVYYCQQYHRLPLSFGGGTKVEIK

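The starting antibody came from a phage panning campaign against this peptide. Designed CDR sequences, proposed from the first random library and measured here. Their group label is 14L_En_Gibbs (En: ensemble of fine-tuned language models; Gibbs: Gibbs sampling). In AlphaSeq, yeast of one mating type display the scFv and yeast of the other type display the target. Pairs that bind mate more often; barcode pairs of the diploids are counted by sequencing. Scores were corrected for input abundance and mapped to Kd with protein pairs of known affinity run in the same pool. The assay was run in six technical replicates.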

Variants are written as CDR1, CDR2 and CDR3 of the light chain (limits as in the source). Parent: KSSQSVLYESRNKNSVA, WASTRES, QQYHRLPLS. Scale: log10 of Kd in nM, estimated from mating counts; low values are strong binders. "nd" means that the variant was in the library but no mating with the target was seen in that replicate; the authors take this as a sign of poor binding, and no number exists. The authors' rule: three or more of the six replicates give a measured affinity, fewer mean a poor binder. Of ten entries with the parent sequence, four were seen in most replicates (averages 0.34 to 2.37), three in one and three in none, so single entries are noisy. Values of this round are not directly comparable with the first-round values of the same sequences. Empty control strains, which show no peptide, gave a signal in 4% of pairings with all light chain designs; the median was 2.64 and 95% of these signals were weaker than 1.59. No background was subtracted. The control count says in how many pairings with the empty strains this scFv gave a signal, with their mean in brackets.

{"CDR-L1": "FMDFQMLEWQYDANNIA", "CDR-L2": "GATLSIE", "CDR-L3": "QQYGRLPLT", "log10 Kd, replicates": "nd / nd / nd / nd / nd / nd", "empty controls": "0/18"}
{"CDR-L1": "RFTDHFLGLGNGRQAIA", "CDR-L2": "HATVAVE", "CDR-L3": "QQYHQLPLA", "log10 Kd, replicates": "0.45 / 0.34 / 0.53 / 0.43 / 0.61 / 0.46", "empty controls": "3/18 (2.09)"}
{"CDR-L1": "NFSYALFAEDAKKKSIA", "CDR-L2": "ENEVTEY", "CDR-L3": "QQYAKLPLT", "log10 Kd, replicates": "0.91 / 1.08 / 1.21 / 1.26 / 1.33 / 1.23", "empty controls": "1/18 (2.34)"}
{"CDR-L1": "KIDENTNHGANRDNNIA", "CDR-L2": "EARTVGA", "CDR-L3": "QQYFRLPII", "log10 Kd, replicates": "1.80 / 1.40 / 1.16 / 1.45 / 1.78 / 1.70", "empty controls": "1/18 (3.02)"}
{"CDR-L1": "HMMMYREMQNNIQNNIA", "CDR-L2": "DAMTRVT", "CDR-L3": "QQYQHLPLS", "log10 Kd, replicates": "0.01 / -0.08 / 0.10 / -0.06 / -0.26 / -0.04", "empty controls": "0/18"}
{"CDR-L1": "QLEVFPLQGMSTTQSIA", "CDR-L2": "DASHRTP", "CDR-L3": "QQYSRLPLV", "log10 Kd, replicates": "0.15 / 0.43 / 0.37 / 0.25 / 0.00 / 0.47", "empty controls": "0/18"}
{"CDR-L1": "NLVEMEGTNQTKGGNIA", "CDR-L2": "SVDQRMS", "CDR-L3": "QQYQRLPLI", "log10 Kd, replicates": "1.06 / 0.93 / 1.04 / 0.74 / 1.56 / 1.07", "empty controls": "0/18"}
{"CDR-L1": "TLMFDGEQSDSENKAIA", "CDR-L2": "DAIHKGV", "CDR-L3": "QQYNRLPLT", "log10 Kd, replicates": "1.70 / 1.39 / 2.33 / 1.06 / 1.32 / 2.53", "empty controls": "1/18 (2.27)"}
{"CDR-L1": "QLFFNDFQYDIESQNIA", "CDR-L2": "QASLRYV", "CDR-L3": "QQYARLPLV", "log10 Kd, replicates": "1.70 / 1.14 / 1.11 / 1.42 / 1.19 / 1.58", "empty controls": "1/18 (2.01)"}
{"CDR-L1": "KMTLPTGMWLNKANSIA", "CDR-L2": "DASSVME", "CDR-L3": "QQYYWLPLT", "log10 Kd, replicates": "1.89 / 2.90 / 2.40 / nd / nd / 2.29", "empty controls": "0/18"}
{"CDR-L1": "NLSIEMSHYYENRYSIA", "CDR-L2": "DMTVREY", "CDR-L3": "QHYSRIPLA", "log10 Kd, replicates": "nd / nd / nd / nd / nd / nd", "empty controls": "0/18"}
{"CDR-L1": "KIQSHLSQSFAIWNNIA", "CDR-L2": "DREQSAE", "CDR-L3": "QQYHQLPLV", "log10 Kd, replicates": "1.02 / 0.67 / 0.54 / 0.45 / 0.29 / 0.72", "empty controls": "0/18"}
{"CDR-L1": "MISLCQNGYYQQNNSIA", "CDR-L2": "DRNERAM", "CDR-L3": "QQYGRLPLV", "log10 Kd, replicates": "nd / 2.60 / 2.14 / nd / 2.29 / 3.75", "empty controls": "2/18 (2.72)"}
{"CDR-L1": "KLQWQQYGENQQEAAIA", "CDR-L2": "NETTVLQ", "CDR-L3": "QQYFKLPLT", "log10 Kd, replicates": "1.09 / 1.31 / 1.38 / 1.26 / 1.36 / 1.14", "empty controls": "2/18 (3.95)"}
{"CDR-L1": "NLSWKTEMQNMDSYAVA", "CDR-L2": "QTEQREA", "CDR-L3": "QQYAILPLS", "log10 Kd, replicates": "0.96 / 0.66 / 0.59 / 0.75 / 0.74 / 0.82", "empty controls": "2/18 (2.75)"}
{"CDR-L1": "QIMHFGLSANLNSKNVA", "CDR-L2": "AKNLRVD", "CDR-L3": "QQYNRLPLS", "log10 Kd, replicates": "0.17 / 0.13 / -0.12 / 0.01 / 0.15 / 0.06", "empty controls": "0/18"}
{"CDR-L1": "HLSDLLSYGKDLQNAVA", "CDR-L2": "GVQTRMT", "CDR-L3": "QQYARLPLF", "log10 Kd, replicates": "0.16 / 0.25 / 0.11 / 0.30 / 0.09 / 0.37", "empty controls": "0/18"}
{"CDR-L1": "HIDILNRGEYLKQDDIA", "CDR-L2": "NADHREQ", "CDR-L3": "QQYFHLPLA", "log10 Kd, replicates": "0.92 / 1.11 / 1.14 / 1.20 / 0.59 / 1.38", "empty controls": "0/18"}
{"CDR-L1": "SIPSEMNQQQTQVNSVA", "CDR-L2": "GEQHTAR", "CDR-L3": "QQYGRLPLS", "log10 Kd, replicates": "nd / 2.13 / nd / 2.52 / 1.71 / 2.57", "empty controls": "0/18"}
{"CDR-L1": "SLYEAMQMGGLHTSNIA", "CDR-L2": "DANQQMR", "CDR-L3": "QHYNRLPLA", "log10 Kd, replicates": "0.10 / 0.26 / 0.14 / -0.21 / -0.56 / 0.11", "empty controls": "0/18"}
{"CDR-L1": "KMRVSLTQGIYRQDSVA", "CDR-L2": "STDIRVL", "CDR-L3": "QQYHHLPLS", "log10 Kd, replicates": "1.68 / 1.86 / 1.90 / 2.74 / 1.28 / 1.20", "empty controls": "1/18 (2.23)"}
{"CDR-L1": "RMNKFMSEITEARNSVA", "CDR-L2": "GAEHLAQ", "CDR-L3": "QSYHRLPLS", "log10 Kd, replicates": "0.14 / -0.04 / 0.10 / 0.23 / 0.45 / 0.50", "empty controls": "0/18"}
{"CDR-L1": "KFNMEVFGQNNNKYNIA", "CDR-L2": "AAHQLEY", "CDR-L3": "QTYHRLPLV", "log10 Kd, replicates": "1.37 / nd / 1.55 / nd / nd / nd", "empty controls": "1/18 (1.55)"}
{"CDR-L1": "NISIEDVSEHNQANNVA", "CDR-L2": "STDCRCD", "CDR-L3": "QQYFMLPLM", "log10 Kd, replicates": "1.75 / 0.76 / 1.32 / 1.59 / 1.58 / 1.43", "empty controls": "1/18 (3.63)"}
{"CDR-L1": "KMRSGSVLQWNNENSVA", "CDR-L2": "EMSEVYR", "CDR-L3": "QQYVSLPLS", "log10 Kd, replicates": "nd / nd / nd / nd / nd / nd", "empty controls": "0/18"}
{"CDR-L1": "NLQLQPRDGAQAQNSIA", "CDR-L2": "DVSEADM", "CDR-L3": "QQYARLPLT", "log10 Kd, replicates": "0.90 / 0.54 / 0.55 / 0.49 / 0.43 / 0.84", "empty controls": "0/18"}
{"CDR-L1": "MMTEGLLGENKNSSNIA", "CDR-L2": "SQNIKTA", "CDR-L3": "QQYQRLPLT", "log10 Kd, replicates": "0.27 / -0.68 / 0.22 / -0.32 / -1.05 / nd", "empty controls": "0/18"}
{"CDR-L1": "RMSQIIQENVRQYNAVA", "CDR-L2": "NGETRTA", "CDR-L3": "QHYSRLPLE", "log10 Kd, replicates": "1.03 / 1.04 / 0.67 / 0.88 / 1.04 / 0.76", "empty controls": "2/18 (2.33)"}
{"CDR-L1": "NLQNPGSELSVWKRNIA", "CDR-L2": "DANIRES", "CDR-L3": "QQYFRLPLL", "log10 Kd, replicates": "0.57 / 0.41 / 0.28 / 0.24 / 0.29 / 0.48", "empty controls": "3/18 (2.78)"}
{"CDR-L1": "MMGMTVTMQSNEIGNVA", "CDR-L2": "DMNERFA", "CDR-L3": "QQYFQLPLS", "log10 Kd, replicates": "0.22 / 0.81 / 0.34 / 0.35 / 0.64 / 0.72", "empty controls": "0/18"}

For reference, 4 entries of the list once more:

CDR-L1,CDR-L2,CDR-L3,"log10 Kd, replicates",empty controls
RFTDHFLGLGNGRQAIA,HATVAVE,QQYHQLPLA,0.45 / 0.34 / 0.53 / 0.43 / 0.61 / 0.46,3/18 (2.09)
NLSWKTEMQNMDSYAVA,QTEQREA,QQYAILPLS,0.96 / 0.66 / 0.59 / 0.75 / 0.74 / 0.82,2/18 (2.75)
KMTLPTGMWLNKANSIA,DASSVME,QQYYWLPLT,1.89 / 2.90 / 2.40 / nd / nd / 2.29,0/18
NFSYALFAEDAKKKSIA,ENEVTEY,QQYAKLPLT,0.91 / 1.08 / 1.21 / 1.26 / 1.33 / 1.23,1/18 (2.34)